“Also recorded” adds a separate entry of the source.
Tested on: Bcl-rambo-induced cell death (caspase-3 activity) in 293T cells
Assay: Effect of apoptosis inhibitors on apoptotic activity of full-length Bcl-rambo in 293T cells
Type: cell-based, human
Settings: 27 hours, 2 μg Bcl-rambo plasmid, 0.5 μg inhibitor vector, standardized by β-galactosidase
Procedure: The effect of different apoptosis inhibitors on the apoptotic activity of Bcl-rambo is investigated in FIG. 6. For this, 293T cells were transfected for 27 hours (shown in FIG. 6A) with 2 μg of Bcl-rambo expression plasmid and 0.5 μg of expression vectors encoding various apoptosis inhibitors, together with 0.5 μg of β-galactosidase expression vector. The following apoptosis inhibitor proteins were selected: FLIP, CrmA, cIAP-1, cIAP-2, XIAP, DN-FADD, DN-caspase 9 and Bcl-XL, and also a comparative experiment in which no vector expressing an apoptosis inhibitor was added (“none”).
293T cells (3×10^5 cells) were sown on 60 mm culture dishes on the day before the transfection and then transiently cotransfected with 2 μg of Bcl-rambo expression plasmids and 0.2 μg of EGFP expression vector (pEGFP-C1, from Clontech) or with 0.5 μg of pCMV-β-galactosidase expression vector. The postnuclear lyzates were then analyzed with regard to the fluorescence intensity of EGFP, the galactosidase activity and the caspase-3 activity using a peptide substrate (Ac-DEVD-AMC, from Alexis). In order to be able to compare the individual measurements, the caspase-3 activity (measured as the number of times it was increased by the induction) was standardized using the fluorescence intensity of EGFP or the β-galactosidase activity.

Substance	blocking of Bcl-rambo-induced cell death by coexpressed apoptosis inhibitor	blocking of Bcl-rambo-induced cell death by coexpressed apoptosis inhibitor (listed as c-IAP-1)
c-IAP1: apoptosis inhibitor of the IAP family, coexpressed	inhibitory effect	act as inhibitors
xIAPs: apoptosis inhibitor of the IAP family, coexpressed	strong inhibitors; also recorded: inhibitory effect	–
